Earlier results as cited in patent US7803760B2, “Methods of inducing ovulation” (Merck Serono SA, priority 2000, dated 2010).

Details: in patients; cited from earlier work

Substance: hCG: glycoprotein hormone biologically and immunologically similar to pituitary LH
- half-life: approximately 8 hours
